Experimental data taken from patent US11905244B2, “Chemical modulators of store-operated calcium channels and their therapeutic applications” (The Texas A&M University System, priority 2017, dated 2024).

Molecular target: CRAC channel (Homo sapiens (Human), UniProt Q96D31)
Test: GFP-NFAT translocation-based high-content screening (TG-stimulated HeLa cells stably expressing GFP-NFAT)
Type: cell-based
Conditions: IC50 Value, Table 1, hits from virtual screening; unit inferred
Description: It is known that thapsigargin (TG) can induce the CRAC channel to open resulting in the calcium influx. The elevation of calcium in cytoplasm can activate the Ca^2+-calcineurin-NFAT pathway followed by NFAT translocation from the cytoplasm to the nucleus to regulate gene transcription. Therefore, the inventors built a GFP-NFAT translocation-based high-content screening method to evaluate the activity of compounds on CRAC channel. Briefly, a HeLa cell line stably expressing GFP-NFAT was established and used, and the images after chemical stimulation in the presence of TG were acquired using an IN Cell Analyzer 6000 confocal laser imaging system, and then the GFP fluorescent intensity ratio between cytoplasm and nucleus was analyzed to reflect the inhibitory activity of compound on CRAC channel.
Briefly, GFP-NFAT stable cells were cultured in Dulbecco's modified eagle's medium (DMEM) supplemented with 10% FBS in 5% carbon dioxide at 37° C. […] Using Pipeline Plot software (NAFT translocation protocol), the intensity of green fluorescence was analyzed in nucleus and cytosol, calculate the ratio of nucleus:cytosol, normalize TG stimulate NFAT translocation as 1 and no TG adding as 0. Finally, the data was analyzed using GraphPad Prism 5 software.

IC50: > 200 µM
SMILES: Cc1ccc(Cl)cc1-c1ccc(/C=C2\SC(=S)N(CC(=O)CO)C2=O)o1 [Compound 16]
